Experimental data: patent US20240383856A1 (Zedira GmbH, priority 2021, published 2024)

The chains behind the UniProt entries cited, without tags or fusion partners.
UniProt P21980, whole entry: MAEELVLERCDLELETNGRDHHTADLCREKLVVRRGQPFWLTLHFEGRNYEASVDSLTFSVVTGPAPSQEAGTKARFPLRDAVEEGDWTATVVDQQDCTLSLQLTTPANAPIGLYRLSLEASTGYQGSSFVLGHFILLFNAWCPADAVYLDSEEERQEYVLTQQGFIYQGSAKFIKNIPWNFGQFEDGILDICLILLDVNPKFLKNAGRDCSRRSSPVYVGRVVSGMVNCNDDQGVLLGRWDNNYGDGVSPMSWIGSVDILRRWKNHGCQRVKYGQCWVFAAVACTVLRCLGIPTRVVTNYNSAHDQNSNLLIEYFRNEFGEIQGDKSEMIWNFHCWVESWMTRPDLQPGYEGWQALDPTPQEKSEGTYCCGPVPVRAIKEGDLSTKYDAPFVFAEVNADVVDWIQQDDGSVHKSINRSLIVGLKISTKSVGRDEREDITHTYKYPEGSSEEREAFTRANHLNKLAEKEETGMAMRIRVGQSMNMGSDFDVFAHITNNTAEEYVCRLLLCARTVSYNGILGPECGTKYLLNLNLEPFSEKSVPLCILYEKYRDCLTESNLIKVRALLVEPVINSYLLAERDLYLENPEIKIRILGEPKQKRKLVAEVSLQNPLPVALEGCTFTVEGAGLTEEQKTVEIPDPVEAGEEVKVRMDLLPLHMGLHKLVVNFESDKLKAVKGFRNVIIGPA

What was measured:
[1] = target: recombinant human transglutaminase 2 (Homo sapiens, UniProt P21980); assay: Transglutaminase assay (DCC-assay): incorporation of dansylcadaverine into dimethylcasein; details: for IC50: read-out: IC50 TG2, recombinant human TG2 10 nM, dansylcadaverine incorporation into dimethylcasein
Description: To illustrate the advantage of branched alkyl moieties over aromatic moieties, we refer to reference compounds Ref. 2 (ZED1227, U.S. Pat. No. 9,434,763 B2) and Ref. 3 (A8, ZED1047). Inhibition data were determined using the classical fluorescent transamidation assay (dansylcadaverine incorporation into methylated casein, DCC-assay) as described [Buchold, C.; Hils, M.; Gerlach, U.; Weber, J.; Pelzer, C.; Heil, A.; Aeschlimann, D.; Pasternack, R. Features of ZED1227: The First-In-Class Tissue Transglutaminase Inhibitor Undergoing Clinical Evaluation for the Treatment of Celiac Disease. Cells 2022, 11, 1667. https://doi.org/10.3390/cells11101667]. Casein is one of the best known high molecular weight (24 kDa) protein substrates for transglutaminases. Please note, the IC50 value of Ref. 3 (A8) published in U.S. Pat. No. 9,434,763 B2 cannot be compared to the present data, relying on a fluorogenic isopeptidase assay.
To this extent, inhibition data were determined using the classical fluorescent transamidation assay (dansylcadaverine incorporation into methylated casein, DCC-assay) as described in Büchold et al. [Büchold, C.; Hils, M.; Gerlach, U.; Weber, J.; Pelzer, C.; Heil, A.; Aeschlimann, D.; Pasternack, R. Features of ZED1227: The First-In-Class Tissue Transglutaminase Inhibitor Undergoing Clinical Evaluation for the Treatment of Celiac Disease. Cells 2022, 11, 1667. https://doi.org/10.3390/cells11101667]. Casein is one of the best known high molecular weight (24 kDa) protein substrates for transglutaminases. Inhibition data of the inventive compounds was compared with inhibition of compounds disclosed in U.S. Pat. No. 9,434,763 B2, particularly, compound A8, which is denoted herein as Reference 3. It is noteworthy that the IC50 values of compounds A8 published in U.S. Pat. No. 9,434,763 B2 and E16 from U.S. Pat. No. 11,072,634 B2 cannot be compared to the present data, relying on a fluorogenic isopeptidase assay.
For the determination of potency of inhibitors against tissue transglutaminase, the incorporation of dansylcadaverine into dimethylcasein (Zedira product T036, Lorand et al., Anal Biochem, 1971, 44:221-31) was measured using recombinant human transglutaminase 2 (Zedira Product T022).
The tissue transglutaminase is diluted in buffer (50 mM Tris-HCl, 7.5 mM CaCl2), 150 mM NaCl, pH=7.4). The final concentration of TG2 in the assay is 10 nM.
A 10 mM inhibitor stock solution is prepared in DMSO, and from this a serial 1:2-fold dilution series is prepared also in DMSO. Each of the initial dilutions is subsequently diluted 1:50-fold with buffer (50 mM Tris-HCl, 7.5 mM CaCl2), 150 mM NaCl, pH=7.4) to yield the final working dilutions containing 2% (v/v) DMSO.
15 μl of inhibitor working dilution are added per well of a 96 well microtiter plate. As control, 15 μl of a 2% (v/v) DMSO solution prepared using the buffer mentioned above are added per well.
Immediately before starting the assay, 600 μl transglutaminase working solution are added to 11.4 ml assay buffer (50 mM Tris-HCl, 10 mM CaCl2), 10 mM glutathione, 2.5% glycerol, 16.7 µM dansylcadaverine, 4 uM N,N-dimethylcasein, 200 mM NaCl, pH=8.0). 285 μl of this reaction mix are added per well containing the inhibitor.
Increase in fluorescence is measured using λex=330 nm and λem=500 nm at 37° C. for 30 min. A slope of the increase in fluorescence between 20 and 30 min is calculated for determination of the IC50 value (inhibitor concentration at which 50% of the initial activity is blocked).
Analysis of enzymatic activity is performed by calculation of the slope of an increase in fluorescence intensity. IC50 values are calculated by plotting the enzymatic activity (as percentage from control containing 2% DMSO instead of inhibitor) against the inhibitor concentration. IC50 is defined as the inhibitor concentration blocking 50% of initial enzyme activity.

[2] = test system: Caco-2 barrier; assay: Caco-2 permeability assay (CacoReady kit); details: for Papp [cm/s] ×10^−6: Caco-2 barrier, CacoReady kit, above 1×10^−6 cm/s classified as permeable
Description: Permeability coefficients (Papp values) were obtained from Caco-2 barrier studies predicting oral/intestinal bioavailability of the tested compounds. The assays were performed by using CacoReady™ ready-to-use kits from ReadyCell according to the manufacturers protocol.

[3] = logD by shake flask method (octanol / PBS pH 7.4, HPLC); details: octanol / PBS pH 7.4, shake flask
Description: In order to classify the inventive compounds according to their lipophilicity, LogD values (distribution coefficient) were determined by means of the well-established shake flask method, measuring the partition of a compound between an octanol and phosphate-buffered saline (PBS, pH 7.4) by HPLC.
The LogD is pH dependent and is a “predictor” for in-vivo properties. LogD combines lipophilicity (intrinsic structural property of the molecule, logP) and ionizability (pKa). Compounds with a moderate lipophilicity (LogD values from 0 to 3) are usually advantaged for oral absorption, being in balance between solubility and permeability. However, sophisticated formulation of a compound might improve oral bioavailability for highly lipophilic compounds.

| IC50 [1] [nM] | Papp [2] [×10⁻⁶ cm/s] | logD [3] | Papp [cm/s] ×10^−6 [2] | fold more potent compared to Ref. 6 ([1]; IC50 ratio versus Ref. 6) | times less potent in comparison to compound II-111 ([1]; IC50 ratio versus II-111) | SMILES |
| --- | --- | --- | --- | --- | --- | --- |
| 40 to 400 | 1 to 10 |  |  |  |  | CNC(=O)C(=O)CC[C@H](NC(=O)c1oc2ccccc2c1C)C(=O)Nc1cccn(CC(=O)NC23CC4C5CC6CC4C(C2)C(C6)C5C3)c1=O |
| 2500 to 10000 |  | B (B: 1 ≤ logD < 3) | A (Papp < 1 × 10^−6 cm/s) |  |  | CCOC(=O)/C=C/CC[C@H](NC(=O)c1cccnc1)C(=O)Nc1ccc(C)n(CC(=O)NCCc2ccccc2)c1=O |
| 400 to 2500 |  | A (A: logD < 1) | A (Papp < 1 × 10^−6 cm/s) | about 10 fold |  | CCC(CC)CNC(=O)Cn1cccc(NC(=O)[C@H](CCC(=O)C(=O)NC)NC(=O)c2cncn2C)c1=O |
| 2500 to 10000 | < 1 |  |  |  | more than 25 times | CNC(=O)C(=O)CC[C@H](NC(=O)c1cccnc1)C(=O)Nc1cccn(CC(=O)NCCc2ccccc2)c1=O |
